Apparent affinities of Ab-14 variants for a coronavirus HR2 peptide

The measurements come from Engelhart et al. 2022 (doi:10.1038/s41597-022-01779-4) through the FLAb antibody collection.

Target: peptide PDVDLGDISGINAS, taken from heptad repeat 2 (HR2) of SARS-CoV-2 spike.

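Phage display of a naive human antibody library on the peptide gave the parent. The library (AAYL50) carries one to three amino acid substitutions per variant, with no insertions or deletions. Affinity was read by AlphaSeq, a pooled yeast mating assay with surface-displayed partners. Mating (16 h, 30 °C) was followed by selection of diploids and sequencing of their barcodes. Each replicate has its own calibration line, from reference interactions of the BCL2 family. Each pool was mated in three replicate cultures.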

Ab-14 is the parent antibody, in scFv form: VH, then three GGGGS repeats, then VL. The heavy chain is unchanged in all variants.
VH: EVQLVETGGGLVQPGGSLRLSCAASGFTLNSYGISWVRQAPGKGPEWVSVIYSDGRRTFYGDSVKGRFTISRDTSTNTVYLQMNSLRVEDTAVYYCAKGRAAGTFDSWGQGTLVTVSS
VL: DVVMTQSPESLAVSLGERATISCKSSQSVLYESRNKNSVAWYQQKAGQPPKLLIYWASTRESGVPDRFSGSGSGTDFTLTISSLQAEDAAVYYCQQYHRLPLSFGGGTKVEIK

The parent's light chain CDRs are KSSQSVLYESRNKNSVA, WASTRES, QQYHRLPLS; each variant's own CDRs replace them letter for letter. Every variant below is changed at S28 of the VL (sequential numbering). Each Kd is an estimate from the mating assay, the geometric mean of the replicates in which the pair was seen; lower is stronger. A pair that was not seen in any replicate is written "nd"; this usually means weak binding, but a binder can also be missed. Order: sorted from the lowest average up, undetected variants last. Three control strains display no target. For library AAYL50, 18% of the pairings with them gave a signal, with a median of 15 µM and one signal in twenty below 970 nM, so weak values seen in few replicates may be background.

- KSSQTVNNESRNKNSVA, WASTRES, QQYHRLPLS: 7.8 nM (3 of 3 replicates)
- KSSQEVLYESRNKNSVA, WASTRES, QQYHRLPLS: 7.9 nM (3 of 3 replicates)
- KSSQEVLYESRNRNSVA, WASTRNS, QQYHRLPLS: 11 nM (3 of 3 replicates)
- KSSQQVLYESRNKNSVA, WANTRER, QQYHRLPLS: 11 nM (3 of 3 replicates)
- KSSQDVLYESRGKNSVA, WASSRES, QQYHRLPLS: 26 nM (3 of 3 replicates)
- KSSQYVLYESRNKNSVA, WASTRES, QQYHRCPLS: 27 nM (3 of 3 replicates)
- KSSQMVLYESRNKNSVA, WASTRLS, QQYHRLPLS: 28 nM (3 of 3 replicates)
- KSSQRVLYESRIKNSVA, WASTRMS, QQYHRLPLS: 30 nM (3 of 3 replicates)
- KSSQQVNYESRNKNSVA, WASTRES, QQYNRLPLS: 50 nM (3 of 3 replicates)
- KSSQMVLYESLLKNSVA, WASTRES, QQYHRLPLS: 67 nM (3 of 3 replicates)
- KSSQMVLYESRNKSSVA, WASTRAS, QQYHRLPLS: 69 nM (3 of 3 replicates)
- LSSQPVLYESRNKNSVA, WASTRES, GQYHRLPLS: 74 nM (3 of 3 replicates)
- KSSQIVLYESRNKNSVA, WASTRES, QQYHSLPLS: 100 nM (3 of 3 replicates)
- KSSQFVLYESRNKNSVA, WASTRLS, QQYHRLPLS: 120 nM (3 of 3 replicates)
- KSSQRELYESRNKNSVA, WASTRES, GQYHRLPLS: 140 nM (3 of 3 replicates)
- KSSQEVLYESRNKNSVA, WASYRES, QQYIRLPLS: 150 nM (3 of 3 replicates)
- KSSQHVLYESRNKNSVA, WASTRES, QQNHRLALS: 190 nM (3 of 3 replicates)
- KSSQWVLYESRNKNSVA, WASTRES, QQYHRLPLS: 240 nM (3 of 3 replicates)
- KSSQCVLYESRNKNSSA, QASTRES, QQYHRLPLS: 240 nM (3 of 3 replicates)
- KSSQVVLYESRNKNSVA, WASTRES, QQYHRTPLS: 370 nM (3 of 3 replicates)
- KSSQTVLYESRNKNSVA, WASTPEH, QQYHRLPLS: 380 nM (3 of 3 replicates)
- KSSQLVLYESRNKNPVA, WASTRES, QQYCRLPLS: 420 nM (3 of 3 replicates)
- KSSQYVLYESRNKTSVA, WASTRES, QQYHRLPLS: 790 nM (2 of 3 replicates)
- DSSQWVLYESRNKNEVA, WASTRES, QQYHRLPLS: 1.9 µM (3 of 3 replicates)
- LHSQNVLYESRNKNSVA, WASTRES, QQYHRLPLS: 4.6 µM (3 of 3 replicates)
- KSSQHVLYESRNKNSVA, WASTRES, QQYHRLPLS: 6.0 µM (1 of 3 replicates)
- KSSQLVLYESRNKNSVA, WASDRES, QQYHRLPLS: 9.7 µM (1 of 3 replicates)
- KSSQLVLYESRNKNSVA, WASMRES, QQYHRLGLS: 10 µM (2 of 3 replicates)
- KSSQWVLYESRNKNSVP, WASTRES, QQGHRLPLS: 10 µM (2 of 3 replicates)
- KSSQRVLYESRNKNSVA, WASGNES, QQYHRLPLS: 15 µM (2 of 3 replicates)
- KSSQMVLYESRNKNSVA, WASTQES, QMYHRLPLS: 25 µM (1 of 3 replicates)
- KSSQNVLYESRNKNSVY, WASTRES, QQYHRGPLS: 25 µM (1 of 3 replicates)
- KSSQAVLYISRNKNSSA, WASTRES, QQYHRLPLS: 39 µM (2 of 3 replicates)
- KSSQIVLYESTNKNSVA, WASTRES, QQYHRLPLS: nd (0 of 3 replicates)
- KSSQRVLYESRNKNVVA, WASTRES, QAYHRLPLS: nd (0 of 3 replicates)
- KSSQWVLYESFNKNSVA, WASTRES, QQYHRHPLS: nd (0 of 3 replicates)
- KSSQPVLYESRFKNSVA, WASTRES, QQYHRLPLT: nd (0 of 3 replicates)
- KSSQFVLYESRNKNKVP, WASTRES, QQYHRLPLS: nd (0 of 3 replicates)
- KSSQMVLYESRNKNSVA, WASTCES, QQYKRLPLS: nd (0 of 3 replicates)

From the list, the first 5 with no signal in any replicate:

- KSSQIVLYESTNKNSVA, WASTRES, QQYHRLPLS -> nd (0 of 3 replicates)
- KSSQRVLYESRNKNVVA, WASTRES, QAYHRLPLS -> nd (0 of 3 replicates)
- KSSQWVLYESFNKNSVA, WASTRES, QQYHRHPLS -> nd (0 of 3 replicates)
- KSSQPVLYESRFKNSVA, WASTRES, QQYHRLPLT -> nd (0 of 3 replicates)
- KSSQFVLYESRNKNKVP, WASTRES, QQYHRLPLS -> nd (0 of 3 replicates)